Data as given in US10258635B2, “Formulations and compositions of vitamin D analogs for treating and preventing cancer and other diseases” (priority 2013, dated 2019).

System: Normal prostate WPMY cells
Experiment: Viability testing by MTT reduction in normal prostate cells
Format: cell-based
Settings: 24 hours; AMPI-107 1 and 10 μM, Calcitrol 1 μM
Method: MTT is reduced in metabolically active cells, in part by the action of dehydrogenase enzymes, to generate reducing equivalents such as NADH and NADPH. The resulting intracellular purple formazan can be solubilized and quantified by spectrophotometry. After 5 minutes at room temperature, absorbances in plates were measured using a plate analyzer set for in dual wavelength comparisons at wavelength of 540 nm with a reference wavelength of 620 nm.

Vitamin D3-3-epoxide [AMPI-107]
cell metabolism (MTT reduction): did not significantly depress cell metabolism
